Measured values: US7851630B2, “Hydronopol substituted benzimidazolone and quinazolinone derivatives as agonists on human ORL1 receptors” (dated 2010)

What was measured:
human μ-opiate receptor = human μ-opiate receptor (Homo sapiens, UniProt P35372); test: Affinity for μ-opiate receptors, [3H]-naloxone receptor binding assay; conditions: membranes of CHO cells expressing human μ-opiate receptor
human ORL1 receptor = human ORL1 receptor (Homo sapiens, UniProt P41146); test: Affinity for human ORL1 receptors, [3H]-nociceptin receptor binding assay; conditions: membranes of CHO cells expressing human ORL1 receptor

SMILES: CC1(C)[C@H]2CC[C@@H](CCN3CCC(N4C(=O)NCc5ccccc54)CC3)[C@@H]1C2
- affinity μ-opiate pKi (human μ-opiate receptor): 7.3
- affinity ORL1 pKi (human ORL1 receptor): 7.8
